Results from PubChem BioAssay AID624037 (The Scripps Research Institute Molecular Screening Center, 2012).
The entries are a selection whose mix differs from that of the whole data set. Active and inactive are the calls of the source.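 Rule for the calls: active = activation above the run's mean over test compounds plus 3 SD (cut at about 23% in these data); inactive = the rest.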

Chains of the proteins cited; added tags and fusions are not shown.
UniProt P08912, whole entry: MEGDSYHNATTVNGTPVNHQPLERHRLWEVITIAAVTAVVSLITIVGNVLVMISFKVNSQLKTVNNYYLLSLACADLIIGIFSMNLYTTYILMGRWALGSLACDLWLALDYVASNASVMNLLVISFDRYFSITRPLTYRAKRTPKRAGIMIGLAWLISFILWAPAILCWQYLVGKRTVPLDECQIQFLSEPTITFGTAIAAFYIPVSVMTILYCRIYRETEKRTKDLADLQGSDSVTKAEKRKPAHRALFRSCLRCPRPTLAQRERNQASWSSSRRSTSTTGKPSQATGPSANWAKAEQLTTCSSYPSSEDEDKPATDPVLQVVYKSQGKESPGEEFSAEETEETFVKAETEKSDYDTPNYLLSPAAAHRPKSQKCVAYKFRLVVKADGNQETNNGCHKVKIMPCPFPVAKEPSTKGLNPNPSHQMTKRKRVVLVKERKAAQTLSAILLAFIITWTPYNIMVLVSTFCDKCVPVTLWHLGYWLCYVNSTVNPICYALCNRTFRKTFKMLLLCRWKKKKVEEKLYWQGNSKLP

molecular target: Muscarinic acetylcholine receptor M5 (Homo sapiens) (UniProt P08912); assay: CHRM5 activators raising intracellular calcium – CHO-K1 cells, Fluo-8 calcium fluorescence, primary screen (AID 624037); conditions: CHO-K1 hM5 cells, at 3 µM, hits give high values, 0% DMSO wells, 100% maximal acetylcholine response;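 note: signal is peak over basal fluorescence ratio across the kinetic read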

SMILES	activation
CCOC(=O)c1ccc(NP(C)(=O)Oc2ccccc2)cc1 (stereo unspecified)	inactive: 0.67%
Cc1cc(C)cc(OP(C)(N)=O)c1 (stereo unspecified)	inactive: 3.99%
COc1ccccc1OP(C)(=O)Nc1cc(Cl)ccc1C (stereo unspecified)	inactive: -1.07%
COc1ccc(OP(C)(=O)Nc2cccc(F)c2)cc1 (stereo unspecified)	inactive: -1.67%
COc1cc(C(=O)NCC2(N3CCOCC3)CCCCC2)ccc1OCC(C)C	inactive: -0.88%
O=[N+]([O-])c1cc([N+](=O)[O-])c(Nc2cccnc2)c([N+](=O)[O-])c1	inactive: 9.75%
O=[N+]([O-])c1ccc2c(c1)C=Nc1ccccc1O2	inactive: -2.44%
CC(C)(C)c1ccc(OP(C)(=O)Nc2ccc(SC(F)(F)F)cc2)cc1 (stereo unspecified)	inactive: -7.07%
Cc1cccc(C)c1OP(C)(N)=O (stereo unspecified)	inactive: 3.18%
CP(=S)(Nn1cnnc1)Oc1ccccc1 (stereo unspecified)	inactive: 1.53%
CP(=O)(Nc1ccccc1Br)Oc1ccccc1 (stereo unspecified)	inactive: -4.84%
COc1ccccc1OP(C)(=O)Nc1ccccc1 (stereo unspecified)	inactive: 0.96%
CCCCOc1ccc(C(=O)NCC2(N3CCCCC3)CCCCC2)cc1OC	inactive: -3.5%
O=[N+]([O-])c1cc([N+](=O)[O-])c(O)c([N+](=O)[O-])c1.c1ccc(Oc2ccncc2)cc1	inactive: 5.89%
CCOC(=O)c1ccc(NP(C)(=O)Oc2ccc(OC)cc2)cc1 (stereo unspecified)	inactive: -2.04%
CCOP(C)(=S)SCC(=O)NC(C)C(=O)O (stereo unspecified)	inactive: -2%
CP(=O)(Nc1ccccn1)Oc1ccc(Cl)cc1 (stereo unspecified)	inactive: 1.56%
CP(=O)(Nc1ccc(SC(F)(F)F)cc1)Oc1ccc(Cl)cc1 (stereo unspecified)	inactive: -0.72%
Cc1cccc(C)c1OP(C)(=O)Nc1ccc(SC(F)(F)F)cc1 (stereo unspecified)	inactive: -3.71%
Cc1ccc(Nc2c([N+](=O)[O-])cc([N+](=O)[O-])cc2[N+](=O)[O-])cc1	inactive: 3.48%
CP(=O)(Oc1ccccc1)OC(c1ccccc1)C(F)(F)F (stereo unspecified)	inactive: -3.7%
CCc1ccc(OP(C)(=O)N2CCN(c3ccc([N+](=O)[O-])cc3)CC2)cc1 (stereo unspecified)	inactive: -0.21%
CP(=O)(NC(=O)Nc1ccccc1)Oc1ccccc1 (stereo unspecified)	inactive: 1.55%

SMILES	activation
Cc1cc(C)cc(OP(C)(=O)Nc2ccc(SC(F)(F)F)cc2)c1 (stereo unspecified)	inactive: 0.7%
O=[N+]([O-])c1cc([N+](=O)[O-])c(-c2cnn(-c3ccccc3)c2)c([N+](=O)[O-])c1	inactive: -3.02%
Cc1nc2ccc3ccccc3c2s1.O=[N+]([O-])c1cc([N+](=O)[O-])c(O)c([N+](=O)[O-])c1	inactive: -10.9%
O=[N+]([O-])c1cc([N+](=O)[O-])c(-n2nnc3ccccc32)c([N+](=O)[O-])c1	inactive: -0.07%
CN(Cc1cccnc1)C(=O)COc1ccc(Cl)c(Cl)c1.O=[N+]([O-])c1cc([N+](=O)[O-])c(O)c([N+](=O)[O-])c1	inactive: 2.11%
CN1CCCCC1COC(=O)C1(O)c2ccccc2CCc2ccccc21 (stereo unspecified)	inactive: -8.98%
COc1ccccc1OP(C)(=O)Nc1c(C)cccc1C (stereo unspecified)	inactive: -0.43%
COc1ccc(-c2ccccn2)cc1.O=[N+]([O-])c1cc([N+](=O)[O-])c(O)c([N+](=O)[O-])c1	inactive: 2.2%
CP(=O)(Nc1ccc(SC(F)(F)F)cc1)Oc1ccccc1 (stereo unspecified)	inactive: -4.55%
CCCOc1ccc(NP(C)(=O)Oc2ccc(Cl)cc2)cc1 (stereo unspecified)	inactive: -5.34%
O=[N+]([O-])c1cc([N+](=O)[O-])c(Nc2nnnn2CCO)c([N+](=O)[O-])c1	inactive: -0.07%
CC1=C2N=C(C=C3N=C(C(C)=C4[N-][C@@](C)([C@@H]5N=C1[C@](C)(CCC(=O)NC[C@@H](C)OP(=O)([O-])O[C@H]1[C@@H](O)[C@@H](n6cnc7cc(C)c(C)cc76)O[C@@H]1CO)[C@H]5CC(N)=O)[C@@](C)(CC(N)=O)[C@@H]4CCC(N)=O)[C@@](C)(CC(N)=O)[C@@H]3CCC(N)=O)C(C)(C)[C@@H]2CCC(N)=O.[C-]#N.[Co+3]	inactive: 0.19%
CN(C)C1(CNC(=O)c2ccc(S(C)(=O)=O)cc2)CCCCC1	inactive: 1.88%
CCOC(=O)C(CC)C1=NC(C)(C)Cc2ccccc21.O=[N+]([O-])c1cc([N+](=O)[O-])c(O)c([N+](=O)[O-])c1 (stereo unspecified)	inactive: 0.77%
CC1=NCCc2c1[nH]c1ccccc21.O=[N+]([O-])c1cc([N+](=O)[O-])c(O)c([N+](=O)[O-])c1	inactive: -4.43%
O=C(O)c1cccc(Nc2c([N+](=O)[O-])cc([N+](=O)[O-])cc2[N+](=O)[O-])c1	inactive: -0.42%
Cc1ccc(C)c(NP(C)(=O)Oc2ccccc2)c1 (stereo unspecified)	inactive: 0.9%
CP(=O)(Nc1cccc(Br)c1)Oc1ccccc1 (stereo unspecified)	inactive: 1.96%
Cc1cc(C)cc(OP(C)(=O)Nc2ccccn2)c1 (stereo unspecified)	inactive: 0.84%
COc1cc(C(=O)NCC2(N3CCOCC3)CCCCC2)cc(Cl)c1OC(C)C	inactive: -3.09%
COc1ccccc1OP(C)(=O)Nc1cccc(Br)c1 (stereo unspecified)	inactive: -4.88%
CCOC(=O)c1ccc(NP(C)(=O)Oc2cc(C)cc(C)c2)cc1 (stereo unspecified)	inactive: -0.87%
Cc1cc(C)cc(OP(C)(=O)Nc2ccc(C)cc2C)c1 (stereo unspecified)	inactive: -0.83%
